From patent US8742106B2 (Novartis AG, priority 2009, dated 2014)

By UniProt entry, the sequences of proteins in these tests, tags left out.
UniProt O43614, whole entry: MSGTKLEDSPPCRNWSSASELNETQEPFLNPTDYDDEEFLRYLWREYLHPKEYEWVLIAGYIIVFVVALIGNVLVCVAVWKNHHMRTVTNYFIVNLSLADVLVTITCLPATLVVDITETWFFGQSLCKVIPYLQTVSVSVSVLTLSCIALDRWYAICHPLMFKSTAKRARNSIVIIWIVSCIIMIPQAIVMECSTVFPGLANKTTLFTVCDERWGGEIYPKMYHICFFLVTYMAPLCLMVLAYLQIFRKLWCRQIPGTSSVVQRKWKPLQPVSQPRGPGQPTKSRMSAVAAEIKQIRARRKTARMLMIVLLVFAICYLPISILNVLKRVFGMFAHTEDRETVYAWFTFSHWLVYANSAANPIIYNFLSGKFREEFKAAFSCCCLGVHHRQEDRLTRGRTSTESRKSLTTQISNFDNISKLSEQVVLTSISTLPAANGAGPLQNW

Biological target: human orexin 2 receptors (Homo sapiens (Human), UniProt O43614)
Assay: Radioligand Binding Assay I ([125I]orexin A competition, cell membranes)
Settings: read-out: binding I hOx2R Kd
Method: Radioligand Binding Assay I
For crude cell membrane preparations, cells (CHO, Chinese hamster ovary or HEK, human embryonic kidney) expressing human orexin 1 or human orexin 2 receptors, were washed with HEPES (10 mM, pH 7.5), scraped off the culture plates with the same buffer, and centrifuged at 4° C. for 5 min at 2500×g. The cell pellet was either stored at −80° C. or used directly. Before the experiments, cell membranes were re-suspended in binding assay buffer (10 mM HEPES, 0.5% (w/v) bovine serum albumin, pH 7.5) by homogenisation with a Polytron homogeniser at 50 Hz for 20 s. Cell membranes were also used as made available by commercial providers.
In initial saturation experiments (to calculate Bmax), cell homogenates (150 μl) were incubated with 25-300 pM of the radioligand ([^125I]orexin A, 50 μl), 8 concentrations in triplicates in the presence or absence Orexin A (1 μM, 50 μl) to define non specific binding. Bound radioactivity was measured, and data were analysed with the program XLFIT or Graphpad Prism. Protein concentration was determined according to the Bradford/BioRad Protein Assay Kit. […]

Structure (SMILES): Cc1n[nH]c(C)c1[C@H](C)NC(=O)COc1cc(C(F)(F)F)c2c(-c3ccccc3)nn(C)c2n1 [Example 1.6, (S)—N-(1-(3,5-dimethyl-1H-pyrazol-4-yl)ethyl)-2-(1-methyl-3-phenyl-4-(trifluoromethyl)-1H-pyrazolo[3,4-b]pyridin-6-yloxy)acetamide]
- Kd: 8 nM
